# Patent US11899021B2, “Luciferase-based thermal shift assays” (Promega Corporation, priority 2015, dated 2024)
# Chains of the proteins cited; added tags and fusions are not shown.
# UniProt Q13547, whole entry: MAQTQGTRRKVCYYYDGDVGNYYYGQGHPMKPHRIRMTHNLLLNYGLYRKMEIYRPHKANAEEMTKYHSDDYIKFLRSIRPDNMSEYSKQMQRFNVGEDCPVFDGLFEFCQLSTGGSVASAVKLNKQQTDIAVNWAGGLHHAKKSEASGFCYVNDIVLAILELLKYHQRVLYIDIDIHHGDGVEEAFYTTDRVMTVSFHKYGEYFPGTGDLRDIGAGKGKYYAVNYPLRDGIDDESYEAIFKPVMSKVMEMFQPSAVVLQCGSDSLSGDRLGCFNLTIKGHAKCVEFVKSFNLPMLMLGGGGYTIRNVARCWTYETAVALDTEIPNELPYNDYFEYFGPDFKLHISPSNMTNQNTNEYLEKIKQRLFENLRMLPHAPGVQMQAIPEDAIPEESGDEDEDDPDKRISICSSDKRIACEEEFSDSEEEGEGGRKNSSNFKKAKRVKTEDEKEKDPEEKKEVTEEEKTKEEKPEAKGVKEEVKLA
# Molecular target: HDAC1-Nluc (Homo sapiens, UniProt Q13547)
# Assay: Direct-luciferase-detection thermal shift assay, HDAC1-Nluc (Example 7)
# Details: HeLa cells then digitonin, 10 uL of 1 mM stock per well
smiles,measurement,value
O=C(CCCCCCC(=O)Nc1ccccc1)NO [SAHA],shift in melting temperature (apparent Tagg) compared to the controls,significant shift in melting temperature (apparent Tagg)
